Results on one substance are retold here after patent publication US7186701B2, “Dehydrating agent and method for dehydrating moist article using the agent and dehydrated article obtained by the method” (Kabushiki Kaisha Hayashibara Seibutsu Kagaku Kenkyujo, priority 2001, dated 2007).

Data set [1] is described as follows: Dehydration and pulverization of plain yogurt by non-reducing saccharide. On the set-up: unit not given here. As to the method:
The anhydrous crystalline cyclotetrasaccharide; crystalline cyclotetrasaccharide, monohydrate; and anhydrous amorphous cyclotetrasaccharide were respectively prepared by the methods in Examples A-1, A-2, and A-3. As the crystalline α,α-trehalose, dihydrate, a commercially available “TREHA®” commercialized by Hayashibara Shoji Inc., Okayama, Japan, was used. The anhydrous crystalline α,α-trehalose and the anhydrous amorphous α,α-trehalose used in this experiment were prepared from a commercialized crystalline α,α-trehalose, dihydrate, using the methods disclosed in Examples for Reference 1 and 3 in Japanese Patent Kokai No. 170,221/94. To four parts by weight of a plain yogurt with a moisture content of about 77% was added either of the above saccharides in an amount of 11 to 16 parts by weight. […] The judgement was conducted in such a manner of sufficiently dehydrating the resulting mixtures to be solidified, subjected to a pulverizer for pulverization, and evaluated as “◯”, when the solids were easily pulverized; “Δ”, when the dehydration of the resulting mixtures was rather insufficient and the pulverization of solids was substantially difficult, though the resulting mixtures were solidified; and “x”, when the dehydration of the resulting mixtures was insufficient and could not be pulverized by a pulverizer.

Data set [2] is described as follows: Dehydrating action: moisture absorption on standing at controlled relative humidity. Type of data set: physicochemical. Conditions: 25° C. The text has this:
Anhydrous crystalline cyclotetrasaccharide; crystalline cyclotetrasaccharide, monohydrate; anhydrous amorphous cyclotetrasaccharide; and crystalline cyclotetrasaccharide, penta- or hexa-hydrate were experimented in detail on their dehydrating actions, particularly, moisture absorption abilities against saccharides and changes on standing. As a control, anhydrous crystalline α,α-trehalose, anhydrous amorphous α,α-trehalose, and crystalline α,α-trehalose, dihydrate, were used as saccharides. The experiments were as follows: […]

With “crystalline cyclotetrasaccharide, penta- or hexa-hydrate [Saccharide D]”, in data set [1], the “Water content (before use)” value is listed as 13.0. Besides, the “moisture content (%) by the Karl Fisher method” value in data set [2] (relative humidity 60%, 0 days after treatment) is on record as 13.0%; in data set [2] (relative humidity 60%, 1 day after treatment) it was 13.1%; in data set [2] (relative humidity 60%, 2 days after treatment), 13.1%; in data set [2] (relative humidity 60%, 3 days after treatment), 13.1%; in data set [2] (relative humidity 60%, 7 days after treatment), 13.2%; in data set [2] (relative humidity 75%, 0 days after treatment) it was 13.0%. Moreover, the “moisture content (%) by the Karl Fisher method” value in data set [2] (relative humidity 75%, 1 day after treatment) is given as 13.1%; in data set [2] (relative humidity 75%, 2 days after treatment), 13.1%; in data set [2] (relative humidity 75%, 3 days after treatment), 13.1%; in data set [2] (relative humidity 75%, 7 days after treatment) it was 13.1%.
